Data on 3 compounds can be found in ChEMBL document CHEMBL1148371, “Sulfonyl-containing aldophosphamide analogues as novel anticancer prodrugs targeted against cyclophosphamide-resistant tumor cell lines” (J Med Chem, 2004).

The nature of data set [1]: Half life period in human plasma using phosphate buffer (0.1 M).
Data set [2] can be described thus: Half life period in phosphate buffer (0.1 M).
For data set [3], the system named is P388. In words: In vivo antitumor activity against P388/0 (wild) leukemia in mice measured by increase in life span after 400 mg/kg compound administration.
Data set [4] in a line: Half life period in human plasma using phosphate buffer (0.08 M). The format is ADME, cell-free.
Data set [5] is described as follows: Half life period in phosphate buffer (0.08 M). In kind it is ADME. The essentials: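 Prodrug was incubated in 0.08 M phosphate buffer pH 7.4 at 37 °C with shaking, mostly at 3–9 mM (0.8 or 0.3 mM for some). Incubation was stopped with 2.0 M acetate pH 5.0 plus EtOH. Parent compound was quantified by silica TLC (UV 254 nm or NBP stain) and densitometry against a zero-time control. kobs came from the ln(% remaining) versus time slope; t1/2 = 0.693/kobs.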

Data set [6] has as its system P388/CPA. Nature of the data set: In vivo antitumor activity against P388/CPA leukemia (resistant) in mice measured by increase in life span after 400 mg/kg compound administration.
The species entered for data set [7] is Homo sapiens. Nature of the data set: Half life period in human plasma albumin using phosphate buffer (0.08 M). The note with it: in vivo.
Data set [8] concerns P388. In words: In vivo antitumor activity against P388/0 (wild) leukemia in mice measured by increase in life span after 100 mg/kg compound administration.
Data set [9] has as its system P388/CPA. In words: In vivo antitumor activity against P388/CPA leukemia in mice (resistant) measured by increase in life span after 100 mg/kg compound administration.
Data set [10] deals with P388. Nature of the data set: In vivo antitumor activity against P388/0 (wild) leukemia in mice measured by increase in life span after 200 mg/kg compound administration.
The test system of data set [11] is P388/CPA. Nature of the data set: In vivo antitumor activity against P388/CPA leukemia (resistant) in mice measured by increase in life span after 200 mg/kg compound administration.

As to `O=P1(N(CCCl)CCCl)NC(O)CCO1` (centres undefined), the T1/2 is 0.25 h in data set [1] and 0.75 h in [2].

Take `CS(=O)(=O)CCOP(N)(=O)N(CCCl)CCCl` (centres undefined): the ILS in [3] amounted to 91%; in data set [6], 100%; in data set [8], 36%; in [9] it was 28%; in [10], 73%; in [11] it was 52%. Besides, the T1/2 in data set [4] was 2.2 h; in data set [5], 5.9 h; in data set [7] it was 2.3 h.

As for `CC(CS(C)(=O)=O)OP(N)(=O)N(CCCl)CCCl` (centres undefined), the increase in life span (ILS) in [3] was 30%; in data set [6], 60%; in data set [8], 10%; in [9], 12%; in data set [10] it was 10%; in data set [11], 28%. Further, the T1/2 in data set [4] was found to be 6.7 h; in data set [5], 15.2 h.

Usually ILS stands for the gain in survival time of treated over control animals, in per cent. Low values mean a small benefit in survival, high ones a large benefit in survival.
